Results taken from patent US5215744A, “Methods for the treatment of tumors” (Boehringer Ingelheim GmbH, priority 1987, dated 1993).

How the values were obtained:
[1] = system: MM-1CB; details: agent alone: 10 units/ml HuIFN-β or 0.1 μM dipyridamole (FIG. 1)
[2] = system: KT cells; details: HuIFN-β alone (as printed in text)

B1: HuIFN-β: Natural HuIFN preparations; β (10^7 I.U./mg protein) (protein, UniProt P01574 22-187, looked up)
Interferon beta: MSYNLLGFLQRSSNFQCQKLLWQLNGRLEYCLKDRMNFDIPEEIKQLQQFQKEDAALTIYEMLQNIFAIFRQDSSSTGWNETIVENLLANVYHQINHLKTVLEEKLEKEDFTRGKLMSSLHLKRYYGRILHYLKAKEYSHCAWTIVRVEILRNFYFINRLTGYLRN
suppression of cell proliferation [1]: only slightly effective in suppressing cell proliferation | DNA synthesis in KT cells [2]: inhibited
